# Data reported in PMC3744640 (Bioorganic & medicinal chemistry letters, 2013).
# How the values were obtained:
# HepG2 = experiment: growth inhibition of HepG2 liver carcinoma cells; assay type: cell-based; settings: up to 100 μM
# Huh-7 = experiment: growth inhibition of Huh-7 liver carcinoma cells; assay type: cell-based; settings: up to 100 μM
structure (smiles),measurement,setting,value
CCC(=O)N1CCC(NC(=O)Nc2ccc(OC(F)(F)F)cc2)CC1 [TPPU],effect on cell viability (in words),HepG2,no observable effects on cell viability
same,effect on cell viability (in words),Huh-7,no observable effects on cell viability
